Assay results: ChEMBL document CHEMBL1133725, “Modeling of kappa-opioid receptor/agonists interactions using pharmacophore-based and docking simulations” (J Med Chem, 2000)

Sequences of proteins named here, by UniProt entry; tags and fusion partners are left off. A change or cut given only in a name is not applied to a line headed by its entry.
UniProt P41144: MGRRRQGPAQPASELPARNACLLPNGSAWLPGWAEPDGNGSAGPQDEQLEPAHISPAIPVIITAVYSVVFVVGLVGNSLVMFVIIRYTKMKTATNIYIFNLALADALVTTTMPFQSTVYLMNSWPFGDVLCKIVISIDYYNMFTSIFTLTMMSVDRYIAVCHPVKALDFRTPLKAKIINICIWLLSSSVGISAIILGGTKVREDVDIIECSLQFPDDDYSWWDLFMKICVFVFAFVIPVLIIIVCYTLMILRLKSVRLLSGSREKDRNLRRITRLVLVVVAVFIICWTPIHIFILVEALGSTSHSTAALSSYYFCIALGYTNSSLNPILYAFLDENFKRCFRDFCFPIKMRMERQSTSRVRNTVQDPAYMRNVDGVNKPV

Target: Kappa-type opioid receptor (Cavia porcellus, UniProt P41144)
Assay: Inhibition of [3H]U-69593 binding to Opioid receptor kappa 1 in guinea pig brain homogenates

Row | Compound | Ki [nM]
1 | O=C(Cc1ccc(Cl)c(Cl)c1)N1CCc2c(O)cccc2[C@H]1CN1CCCC1 | 0.09
2 | CN(C(=O)Cc1ccc(Cl)c(Cl)c1)[C@H]1c2ccc(O)cc2CC[C@@H]1N1CCCC1 | 1
